Results taken from patent publication US5886190A, “Rapid synthesis and use of 18F-fluoromisonidazole and analogs” (priority 1997, dated 1999).

Tested on: mammary tumor
Test: Autoradiographic studies in tumor-bearing rats
Conditions: in vivo
Procedure: The synthesis scheme for [^18 F]FETNIM is depicted in FIG. 6. Biodistribution studies of [^18 F]FETNIM were performed at 1, 2 and 4 hours in mammary tumor-bearing rats (10 μCi, iv, N=3/time interval). Autoradiograms were performed at 1 hour postinjection of [^18 F]FETNIM, and a comparison has been made with [^18 F]fluoromisonidazole (FMISO). Intratumoral oxygen tension measurements were performed using the Eppendorf computerized histographic system. Twenty to twenty-five pO2 measurements along each of 2 to 3 linear tracks were performed at 0.4 mm intervals on each tumor. PET imaging studies of [^18 F]FETNIM were performed in rabbits bearing V2 tumors (N=3, 4 mCI, iv) which were located on the right leg.
Female Fischer 344 mammary tumor-bearing rats (n=3) after receiving [^18 F]FETNIM (2 mCi, iv) were sacrificed at 1 h. […] The rats were sacrificed at 1 hour postinjection. The rat body was fixed in a carboxymethyl cellulose (4%) block. The frozen body in a block was mounted to a cryostat (LKB 2250 cryo-microtome, Ijamsville, Md.) and 40 μm coronal sections were made. The section was freeze dried, then mounted on a x-ray film (X-Omat AR, Kodak, Rochester, N.Y.) for 24 hours.

OC[C@H]1OC(O)[C@H]([18F])[C@@H](O)[C@@H]1O (some centres unmarked) [[^18 F]FDG, [^18 F]fluorodeoxyglucose, reference compound]
Distribution in tumor-bearing rat: different from [^18 F]FETNIM and [^18 F]FMISO
Autoradiogram: metabolic activity of tumor (rat): the tumor was metabolically active
